Biological target: Muscarinic acetylcholine receptor M1 (Rattus norvegicus) (UniProt P08482)
Experiment: rat M1 muscarinic receptor antagonist potency, dose response, cell-based, calcium fluorescence (AID 859)
Details: M1-expressing cells, antagonist mode vs EC80

Sequences of proteins named here, by UniProt entry; tags and fusion partners are left off. A change or cut given only in a name is not applied to a line headed by its entry.
UniProt P08482: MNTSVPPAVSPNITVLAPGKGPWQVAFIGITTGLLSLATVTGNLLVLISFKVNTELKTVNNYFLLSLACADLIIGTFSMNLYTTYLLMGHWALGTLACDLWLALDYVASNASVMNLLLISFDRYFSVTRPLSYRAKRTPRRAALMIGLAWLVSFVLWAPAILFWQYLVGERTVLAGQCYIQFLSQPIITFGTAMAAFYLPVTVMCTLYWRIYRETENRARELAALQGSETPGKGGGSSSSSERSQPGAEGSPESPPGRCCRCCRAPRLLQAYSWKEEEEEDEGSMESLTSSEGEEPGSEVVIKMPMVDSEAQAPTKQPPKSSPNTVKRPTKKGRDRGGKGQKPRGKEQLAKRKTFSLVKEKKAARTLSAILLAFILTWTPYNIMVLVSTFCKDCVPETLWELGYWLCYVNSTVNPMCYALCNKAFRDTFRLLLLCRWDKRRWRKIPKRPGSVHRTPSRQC

SMILES: Cc1ccc(OCC(=O)OC2CN3CCC2CC3)cc1 (stereo unspecified)
- IC50: 8.28 µM
